{
  "source": "patent EP0303681B1",
  "about": "(priority 1987, dated 1988)",
  "origin": "cited, not measured here",
  "key": {"[1]": {"settings": "after intravenous administration; cited from earlier work"}, "[2]": {"tested_on": "metastatic melanoma", "settings": "cyclophosphamide alone for treatment of melanoma, limited number of patients (Mastrangelo et al.); cited from earlier work"}},
  "data": [
    {"smiles": "O=P1(N(CCCl)CCCl)NCCCO1", "note": "(stereo not drawn)", "values": [
      {"measurement": "drug and its metabolites detectable in plasma", "setting": "[1]", "result": "up to 72 hours"},
      {"measurement": "serum half life", "setting": "[1]", "result": "about 4 hours"},
      {"measurement": "response", "setting": "[2]", "result": "less than 13%"}
    ]}
  ]
}
